The values that follow come from paper PMC7248707 (Molecules, 2020).

The chains behind the UniProt entries cited, without tags or fusion partners.
UniProt P35372, whole entry: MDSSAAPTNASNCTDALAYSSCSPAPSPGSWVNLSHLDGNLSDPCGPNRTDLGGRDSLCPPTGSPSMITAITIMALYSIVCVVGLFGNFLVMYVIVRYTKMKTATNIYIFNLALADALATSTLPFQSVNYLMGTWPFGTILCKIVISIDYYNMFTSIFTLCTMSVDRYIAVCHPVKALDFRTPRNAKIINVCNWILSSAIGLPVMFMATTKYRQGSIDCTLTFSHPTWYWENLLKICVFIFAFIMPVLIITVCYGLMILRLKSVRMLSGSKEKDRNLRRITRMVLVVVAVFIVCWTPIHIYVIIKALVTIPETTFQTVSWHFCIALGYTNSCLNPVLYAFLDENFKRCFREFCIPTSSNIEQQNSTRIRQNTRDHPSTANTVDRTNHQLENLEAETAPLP

SMILES strings stand for the structures.

Data set [1] concerns the target T1, human MOR (Homo sapiens, UniProt P35372).
The conditions of data set [2]: cited from earlier work.
The target of data set [3] is T1, human MOR. To be noted: relative to DALDA.
Data set [4] deals with T1, human MOR. Description: biochemical.
Data set [5] concerns the target T1, human MOR. Description: biochemical. The source holds these as a separate data set.

For the molecule `Cc1cc(O)cc(C)c1C[C@H](N)C(=O)N[C@H](CCCNC(=N)N)C(=O)N[C@@H](Cc1ccccc1)C(=O)N[C@@H](CCCCN)C(N)=O` [[Dmt^1]DALDA, H-Dmt-D-Arg-Phe-Lys-NH2], at human MOR [1], the “higher agonist potency than DAMGO” value was 35 fold and the “increase in agonist potency versus DALDA” value is 292 fold. Besides, the “BBB crossing / CNS entry” value in data set [2] was “can enter the CNS”. Also, the “increase in binding affinity to the human MOR versus DALDA” value on human MOR [3] is listed as 27 fold. This molecule also registered an EC50 at human MOR [4] of 0.51 ± 0.06 nM. This molecule also returned an inhibition constant Ki at human MOR [5] of 0.23 ± 0.02 nM.
